“Also recorded” adds a separate entry of the source.
Key:
SK4 channels = SK4 channels (Homo sapiens, UniProt O15554); conditions: general statement in the definition of SK4 channels; cited from earlier work
human PBMCs = assay: Human osteoclastogenesis / cell fusion of PBMCs under M-CSF+RANKL stimulation (TRAP+ osteoclast-like cells); type: cell-based; conditions: FIGS. 10A-B, four replicates
Description: Human osteoclasts. These cells were generated using normal peripheral blood blood (Allcells, Emeryville, Calif.). Peripheral blood monocytes were isolated using Ficoll-Paque and cultured at a concentration of 3×10^6 cells/ml in MEME supplemented with 10% FCS, recombinant human M-CSF (25 ng/ml) and recombinant human RANKL (40 ng/ml). The medium was changed once a week.

[1] = test system: bone marrow-derived macrophages from WT mice; assay: Osteoclastogenesis / cell fusion of bone marrow-derived macrophages of WT mice under M-CSF+RANKL (TRAP+ osteoclast-like cells); type: cell-based, mouse; conditions: bone marrow-derived macrophages of WT (SK4+/+) mice; FIGS. 7A-B; five replicates
Description: Bone marrow- and spleen-derived mouse osteoclasts. These cells were generated from four- to twelve-week-old sk4^+/+ and sk4^−/− mice as previously described (Cui et al. (2007) Proc. Natl. Acad. Sci. USA 104:14436-14441; Epub 2007 Aug. 28). Bone marrow and spleen cells were isolated, mechanically dissociated and cultured at a density of 1.33×10^6 cells per cm^2 in MEM containing 10% heat-inactivated fetal bovine serum (HyClone, Logan, Utah), 100 units/ml penicillin-streptomycin (Gibco Invitrogen, Carlsbad, Calif.), 1% MEM vitamins, 1% glutamine, and 30 ng/ml M-CSF (PeproTech, Inc. Rocky Hill, N.J.). RANKL (PeproTech, Inc.) was added at a concentration of 40 ng/ml. Media was changed every three days. To assess the formation of an actin ring, a landmark of osteoclast activity, cells were cultured in the presence of M-CSF (20 ng/ml) and RANKL (40 ng/ml) on glass slides for 8 days, fixed and reacted with phalloidin-Alexa 568 and Topro-3. To further assess resorptive activity, cells were cultured on Osteologic slides that are coated with artificial bone made of calcium-phosphate crystals. After 8 days, cells were lysed and the substrates stained with silver nitrate according to the supplier's instructions. The resorbed areas on slides were recorded by histomorphometry.

In the case of Clc1ccccc1C(c1ccccc1)(c1ccccc1)n1cccn1 [TRAM-34, 1-[(2-chlorophenyl)diphenylmethyl]-1H-pyrazole], the “block of SK4 channels” value (SK4 channels) is given as “blocked”, the “human osteoclastogenesis in vitro (surface area of TRAP+ osteoclast-like cells, POC relative to no compound control)” value (human PBMCs) is given as “inhibited human osteoclastogenesis in vitro in a dose-dependent manner; also recorded: prevent osteoclastogenesis in a dose-dependent manner” and the “osteoclastogenesis (surface area of TRAP+ osteoclast-like cells, POC relative to no compound control)” value [1] is given as “attenuated osteoclastogenesis in a dose dependent manner; also recorded: prevent osteoclastogenesis in a dose-dependent manner”.
